From ChEMBL document CHEMBL1139550, “1-Acyl-1H-[1,2,4]triazole-3,5-diamine analogues as novel and potent anticancer cyclin-dependent kinase inhibitors: synthesis and evaluation of biological activities” (J Med Chem, 2005)

Protein sequences, listed by entry. Tags and fused reporters are not part of them.
UniProt P35968, whole entry: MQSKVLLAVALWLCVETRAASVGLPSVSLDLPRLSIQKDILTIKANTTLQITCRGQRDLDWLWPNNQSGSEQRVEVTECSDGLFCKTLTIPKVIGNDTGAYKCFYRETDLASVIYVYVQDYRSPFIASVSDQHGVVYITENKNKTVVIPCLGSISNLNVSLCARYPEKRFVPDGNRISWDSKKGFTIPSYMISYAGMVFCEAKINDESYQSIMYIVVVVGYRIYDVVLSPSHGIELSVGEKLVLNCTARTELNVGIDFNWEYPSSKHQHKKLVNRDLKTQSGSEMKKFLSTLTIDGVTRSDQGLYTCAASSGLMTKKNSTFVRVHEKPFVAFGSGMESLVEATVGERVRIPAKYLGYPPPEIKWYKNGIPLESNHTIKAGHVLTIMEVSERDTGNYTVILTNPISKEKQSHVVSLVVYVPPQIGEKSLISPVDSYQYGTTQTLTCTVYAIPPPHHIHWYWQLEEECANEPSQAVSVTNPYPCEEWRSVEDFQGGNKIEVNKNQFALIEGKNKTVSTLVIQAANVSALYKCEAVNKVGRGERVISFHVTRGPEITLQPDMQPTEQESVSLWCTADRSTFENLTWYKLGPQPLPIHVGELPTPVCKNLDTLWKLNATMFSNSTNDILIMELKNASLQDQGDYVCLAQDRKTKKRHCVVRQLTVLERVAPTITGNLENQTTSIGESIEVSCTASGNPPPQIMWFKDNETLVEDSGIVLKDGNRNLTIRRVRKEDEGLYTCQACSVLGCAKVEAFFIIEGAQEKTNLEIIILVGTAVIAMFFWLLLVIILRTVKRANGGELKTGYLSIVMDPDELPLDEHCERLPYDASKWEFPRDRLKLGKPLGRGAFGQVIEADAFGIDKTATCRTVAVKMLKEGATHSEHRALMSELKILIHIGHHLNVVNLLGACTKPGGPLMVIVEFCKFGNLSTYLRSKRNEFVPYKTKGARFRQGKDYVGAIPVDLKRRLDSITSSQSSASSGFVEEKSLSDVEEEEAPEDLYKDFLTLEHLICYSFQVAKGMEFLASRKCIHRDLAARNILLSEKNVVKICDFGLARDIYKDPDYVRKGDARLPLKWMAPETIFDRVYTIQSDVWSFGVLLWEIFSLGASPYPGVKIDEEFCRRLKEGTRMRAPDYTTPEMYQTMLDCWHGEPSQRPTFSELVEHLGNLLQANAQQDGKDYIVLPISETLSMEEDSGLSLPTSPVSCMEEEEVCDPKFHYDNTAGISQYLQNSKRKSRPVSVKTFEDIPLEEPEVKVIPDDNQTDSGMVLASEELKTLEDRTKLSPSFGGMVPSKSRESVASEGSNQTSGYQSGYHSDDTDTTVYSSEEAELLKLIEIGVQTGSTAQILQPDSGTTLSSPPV

Biological target: Vascular endothelial growth factor receptor 2 (Homo sapiens, UniProt P35968)
Experiment: Inhibition of Vascular endothelial growth factor receptor 2

SMILES | IC50 [nM]
Nc1nc(Nc2ccc(S(N)(=O)=O)cc2)nn1C(=S)Nc1c(F)cccc1F | 32
Cc1ccsc1C(=O)n1nc(Nc2ccc(S(N)(=O)=O)cc2)nc1N | 51
